Measured values from patent US8809619B2, “Knockout mice for a P450 gene cluster” (ITI Scotland Limited, priority 2007, dated 2014).

[1] = Cyp3a cluster KO, RIF 60 mg/kg 3 daily doses, +/- % SD
[2] = Cyp3a cluster KO, RIF 60 mg/kg IP 3 daily doses, mean +/- SD, n=4

CO[C@H]1/C=C/O[C@@]2(C)Oc3c(C)c(O)c4c(O)c(c(/C=N/N5CCN(C)CC5)c(O)c4c3C2=O)NC(=O)/C(C)=C\C=C\[C@H](C)[C@H](O)[C@@H](C)[C@@H](O)[C@@H](C)[C@H](OC(C)=O)[C@@H]1C [rifampicin]
Body weight, % mean of corresponding strain control [1]: (102 +/− 11) % | Liver weight, % mean of corresponding strain control [1]: (100 +/− 10) % | Body weight [2]: 27 ± 3 g | Liver weight [2]: 1.26 ± 0.13 g | Hepatomegaly (either mouse strain (C57BL/6J, Cyp3a cluster KO), 60 mg/kg 3 daily doses): did not result in any hepatomegaly
